About 2,200 (0.55%) of roughly 400,000 compounds were called active. Listed are the inconclusive results; actives and inactives stand elsewhere. The call rests on the fitted dose curve; in most records, active means well fitted inhibition curve with a large enough effect; inconclusive means small, poorly fitted or top-dose-only effect, or another doubt; inactive means no such curve, though single readings can be large or run the other way.
target: DNA polymerase kappa (Homo sapiens) (UniProt Q9UBT6); assay: qHTS for Inhibitors of Polymerase Kappa; conditions: purified Pol kappa, fluorescent DNA synthesis assay, 10 min
Protocol: The processing and repair of DNA interstrand crosslinks (ICL) in eukaryotic cells are extremely complex, potentially involving multiple DNA repair and damage tolerance pathways, including homologous recombination, nucleotide excision repair, translesion synthesis (TLS), and cell cycle checkpoints.
To that end, in a collaboration between the Oregon Health & Science University and the NIH Chemical Genomics Center a 1536-well high-throughput screen was developed. This fluorescent screen was assayed against the NIH Molecular Libraries Small Molecule Repository (MLSMR) to discover inhibitors of Pol Kappa.
NIH Chemical Genomics Center [NCGC]
NIH Molecular Libraries Probe Centers Network [MLPCN]
Assay Submitter (PI): Stephen Lloyd, Oregon Health & Science University
Three microliters of reagents (buffer in column 3 and 4 as negative control and 10 nM Pol kappa in columns 1, 2, and 5-48) were dispensed into a 1536-well black solid-bottom plate. Compounds (23 nL) were transferred via Kalypsys pin tool equipped with 1536-pin array. The plates were then incubated for 15 min at room temperature, and 1 uL substrate (50 nM final concentration) were then added to start the reaction and kinetically read twice at 0 min and 10 min on the Viewlux reader
Potency means the concentration at half of the fitted maximal effect.

The chains behind the UniProt entries cited, without tags or fusion partners. Where a name states a change or a piece, a line headed by the entry shows the natural chain unless it says otherwise.
UniProt Q9UBT6: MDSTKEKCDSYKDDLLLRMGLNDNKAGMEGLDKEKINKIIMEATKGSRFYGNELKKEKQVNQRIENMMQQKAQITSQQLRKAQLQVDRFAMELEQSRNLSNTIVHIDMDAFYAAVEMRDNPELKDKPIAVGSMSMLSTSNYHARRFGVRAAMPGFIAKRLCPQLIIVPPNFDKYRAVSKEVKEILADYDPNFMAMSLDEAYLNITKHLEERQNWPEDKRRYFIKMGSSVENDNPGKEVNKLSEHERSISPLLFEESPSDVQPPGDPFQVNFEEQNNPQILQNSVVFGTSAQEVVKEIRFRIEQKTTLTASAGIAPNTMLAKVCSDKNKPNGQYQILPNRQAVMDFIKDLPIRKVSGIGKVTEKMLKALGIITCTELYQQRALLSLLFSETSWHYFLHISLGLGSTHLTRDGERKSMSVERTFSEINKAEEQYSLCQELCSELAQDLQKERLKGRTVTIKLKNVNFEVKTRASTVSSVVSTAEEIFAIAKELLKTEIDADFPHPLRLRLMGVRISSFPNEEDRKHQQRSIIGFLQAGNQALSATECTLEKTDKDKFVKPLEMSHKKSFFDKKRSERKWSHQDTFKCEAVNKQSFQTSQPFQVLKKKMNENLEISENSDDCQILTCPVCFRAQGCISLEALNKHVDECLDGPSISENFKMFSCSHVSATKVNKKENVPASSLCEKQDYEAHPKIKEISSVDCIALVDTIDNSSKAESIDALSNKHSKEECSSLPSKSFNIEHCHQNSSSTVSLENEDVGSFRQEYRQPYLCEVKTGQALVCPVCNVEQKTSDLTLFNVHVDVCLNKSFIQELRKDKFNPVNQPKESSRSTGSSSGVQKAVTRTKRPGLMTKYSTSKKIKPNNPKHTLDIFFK

Row | SMILES | Potency
1 | ClCCN(CCCl)c1ccc(CC2C=CC=C2)cc1 | inconclusive: 70.8 µM

From PubChem BioAssay AID588579 (National Center for Advancing Translational Sciences (NCATS), 2011)
